# Results reported in published antibiotic growth screens (doi:10.1038/s41589-023-01349-8).
# The list shows a part of the results.
# System: A. baumannii ATCC 17978
# Assay: relative growth (fraction of control); higher = less inhibition
# Conditions: 50 µM
row,SMILES,relative growth
1,Cc1cccc(S(=O)(=O)N2C[C@@H](O)COC[C@H]3O[C@@H](CC(=O)N4CCN(C)CC4)CC[C@@H]32)c1,0.977
2,COc1ccc(-c2ccc3c(c2)O[C@H](CN(C)CC2CCOCC2)[C@@H](C)CN([C@H](C)CO)S3(=O)=O)cc1,0.906
3,O=C1c2ccccc2C(=O)C1c1ccc(Cl)cc1,0.914
4,CN(C)CCOc1ccc(/C(=C(/CCCl)c2ccccc2)c2ccccc2)cc1.O=C(O)CC(O)(CC(=O)O)C(=O)O,1.05
5,c1cn(CCN2CCNCC2)cn1,1.07
6,O=C(C[C@H]1C[C@H]2c3cc(NS(=O)(=O)c4ccc(F)cc4)ccc3O[C@H]2[C@@H](CO)O1)NCc1cccnc1,1.11
7,CCOC(=O)[C@H]1CNC(=S)N[C@@]1(C)O,1.09
8,COCC#Cc1ccc2c(c1)O[C@@H](CN(C)C(=O)Nc1ccccc1F)[C@H](C)CN([C@H](C)CO)S2(=O)=O,1.03
9,COc1ccc2nccc(Cl)c2c1,1.07
10,N[C@H]1C[C@@H]1c1ccc(-c2cccc(O)c2)cc1,1.04
11,CCS(=O)(=O)NCC[C@H]1CC[C@@H](NC(=O)Cc2ccccn2)[C@H](CO)O1,0.903
12,O=C(C[C@H]1CC[C@@H]2[C@H](COC[C@H](O)CN2S(=O)(=O)c2ccc(Cl)cc2)O1)NCCN1CCCCC1,0.928
13,NCC[C@@H](Cc1ccccc1)c1ccc2c(c1)OCO2,0.982
14,CC1=CC(C)(C)N(C(=O)Nc2ccc(C)cc2)c2ccccc21,1.11
15,CC(C)C#Cc1ccc2c(c1)O[C@@H](CN(C)C(=O)c1cnccn1)[C@@H](C)CN([C@@H](C)CO)S2(=O)=O,0.834
16,FC(F)(F)c1ccc(/C=N/c2cc(Cl)cc(Cl)c2)cc1,1.04
17,CC(C)C#Cc1ccc2c(c1)O[C@@H](CN(C)C(=O)c1cnccn1)[C@H](C)CN([C@@H](C)CO)S2(=O)=O,0.94
18,CCCCCCCC/C=C\CCCCCCCC(=O)[O-].[NH3+]CCO,1.35
19,CCCNC(=O)N1C[C@H](O)COC[C@@H]2O[C@@H](CC(=O)N3CCOCC3)CC[C@H]21,0.938
20,N[C@H](CCC(=O)O)C(=O)O,1.17
21,N[C@@H]1CONC1=O,0.888
22,N[C@H](c1ccc(Cl)cc1)c1cccnc1,0.948
23,Cc1ccccc1S(=O)(=O)N1C[C@H](O)COC[C@H]2O[C@H](CC(=O)N3CCN(C)CC3)CC[C@@H]21,0.964
24,O=c1[nH][n+](-c2ccccc2)no1,0.986

row,SMILES,relative growth
1,CCNC(=O)C[C@H]1CC[C@H](NC(=O)C2CCOCC2)[C@@H](CO)O1,1.03
2,COc1ccc(NC(=O)N[C@H]2CC[C@@H](CCNC(=O)CN3CCOCC3)O[C@@H]2CO)cc1,0.91
3,CN(Cc1ccccc1)C[C@H]1C[C@@H](c2ccc(CO)cc2)O[C@H](c2ccc(NC(=O)CCCCCCC(=O)NO)cc2)O1,0.914
4,OC[C@H]1O[C@H](O[C@H]2[C@H](O)[C@@H](O)[C@H](O)O[C@@H]2CO)[C@H](O)[C@@H](O)[C@@H]1O,1.02
5,CC1=CC2(CO)C(=O)[C@]3(CO3)C1[C@H]1[C@]2(C)C=C(CO)C(=O)[C@]12CO2 (some centres not stated),0.539
6,C[C@@H]1CN([C@H](C)CO)S(=O)(=O)c2ccc(C#CC3CC3)cc2O[C@@H]1CN(C)Cc1cccc(F)c1,0.985
7,COc1ccc([Si](C)(C)[C@H]2[C@H](CCn3cc([C@H](O)c4ccccc4)nn3)O[C@@]3(C(=O)N(C)c4c(Br)cc(C)cc43)[C@@H]2C)cc1,1.16
8,C[C@H]1CN([C@@H](C)CO)S(=O)(=O)c2ccc(C#Cc3ccc(F)cc3)cc2O[C@H]1CN(C)S(=O)(=O)c1cn(C)cn1,1.03
9,C[C@@H]1CN([C@@H](C)CO)C(=O)c2cc(Br)cnc2O[C@H]1CN(C)S(=O)(=O)c1ccc(F)cc1,0.946
10,CC(C)(C)c1cc(C(C)(C)C)n(-c2ccc(-n3cccc3)cc2)n1,1.23
11,CN(C)CC(=O)N[C@H]1CC[C@@H](CCNC(=O)C2CC2)O[C@H]1CO,1.14
12,O=C(CN1CCOCC1)N[C@@H]1CC[C@@H](CCNC(=O)Nc2cc(F)ccc2F)O[C@@H]1CO,1.1
13,O=C(O)c1nn(Cc2ccccc2)nc1C(=O)O,0.967
14,Cc1cccc(O)c1,0.833
15,Cc1cccc(C)c1Nc1nc2c(C)cc(C)c(C)c2s1,0.963
16,Cc1ccc(S(=O)(=O)N2C[C@H](O)COC[C@H]3O[C@@H](CC(=O)NCc4ccc5c(c4)OCO5)CC[C@@H]32)cc1,1.04
17,O=C(C[C@H]1CC[C@H]2[C@@H](COC[C@@H](O)CN2C(=O)c2ccncc2)O1)NCc1ccc(-c2ccccc2)cc1,0.987
18,O=C(O)/C=C/c1ccc(O)c(O)c1,1.05
19,CC(CCc1ccccc1)NCC(O)c1ccc(O)c(C(N)=O)c1.Cl (configuration not stated),0.891
20,CN(C)c1nc2cc(Cl)ccc2o1,0.937
21,C[C@@H]1CN([C@@H](C)CO)S(=O)(=O)c2ccc(C#CCN(C)C)cc2O[C@@H]1CN(C)S(C)(=O)=O,1.08
22,O=C(C[C@@H]1C=C[C@@H](NC(=O)c2cccc(F)c2)[C@@H](CO)O1)NCCN1CCCC1,1.07
23,O=C(C[C@@H]1C[C@H]2c3cc(NC(=O)Nc4ccc(C(F)(F)F)cc4)ccc3O[C@H]2[C@H](CO)O1)NC1CCCCC1,1.09
